Among the data in ChEMBL document CHEMBL4715841, “Discovery of dihydropyrazino-benzimidazole derivatives as metabotropic glutamate receptor-2 (mGluR2) positive allosteric modulators (PAMs)” (Eur J Med Chem, 2020) are Activity values, retold here.

Amino acid sequences for entries named in this document (tags omitted). A change or cut given only in a name is not applied to a line headed by its entry.
UniProt Q14416: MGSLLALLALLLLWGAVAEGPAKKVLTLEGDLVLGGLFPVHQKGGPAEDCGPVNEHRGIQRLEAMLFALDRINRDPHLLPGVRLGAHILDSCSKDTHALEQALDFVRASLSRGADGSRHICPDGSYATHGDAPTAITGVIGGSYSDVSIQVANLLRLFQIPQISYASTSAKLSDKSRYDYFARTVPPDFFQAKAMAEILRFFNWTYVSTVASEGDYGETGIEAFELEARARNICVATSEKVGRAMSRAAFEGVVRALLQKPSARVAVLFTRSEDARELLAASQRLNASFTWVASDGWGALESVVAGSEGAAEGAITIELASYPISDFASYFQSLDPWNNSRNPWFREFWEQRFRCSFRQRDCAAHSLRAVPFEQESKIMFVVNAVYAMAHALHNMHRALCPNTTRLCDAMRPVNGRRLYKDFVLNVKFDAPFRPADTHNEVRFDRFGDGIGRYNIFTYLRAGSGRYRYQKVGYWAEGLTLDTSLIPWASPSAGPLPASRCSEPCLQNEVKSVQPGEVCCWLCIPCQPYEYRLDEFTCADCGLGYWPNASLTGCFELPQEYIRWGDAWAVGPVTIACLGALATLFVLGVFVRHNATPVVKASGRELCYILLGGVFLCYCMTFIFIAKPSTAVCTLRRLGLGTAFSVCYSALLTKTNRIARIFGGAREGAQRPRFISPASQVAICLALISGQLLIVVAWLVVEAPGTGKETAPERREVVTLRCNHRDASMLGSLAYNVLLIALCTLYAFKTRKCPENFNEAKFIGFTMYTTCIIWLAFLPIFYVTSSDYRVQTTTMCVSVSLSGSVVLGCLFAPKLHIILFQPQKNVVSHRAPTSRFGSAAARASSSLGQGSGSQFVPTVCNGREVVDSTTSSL

For the test, the target named is Metabotropic glutamate receptor 2 (Homo sapiens, UniProt Q14416). In words: Positive allosteric modulation of human mGlu2 receptor stably expressed in human Chem-1 cells assessed as potentiation of glutamate-induced intracellular calcium level t 1 uM preincubated for 30 mins followed by glutamate addition by fluorescence assay relative to control. It counts as functional, cell-based. A general note: A change in cytosolic calcium serves as a functional read-out for many receptors and channels.
As for `c1csc(CCN2CCn3c(nc4ccccc43)C2)c1`, the Activity was 34%.

For the compound `c1ccc(CCN2CCn3c(nc4ccccc43)C2)nc1`, the Activity is -10%.

For the compound `c1ccc2cc(CCN3CCn4c(nc5ccccc54)C3)ccc2c1`, the Activity stood at 36%.

As for `O=C1Cn2c(nc3ccccc32)CN1CCCOc1ccc(Cl)c(Cl)c1`, the Activity was 30%.

Regarding `c1ccc(CN2CCn3c(nc4ccccc43)C2)cc1`, the Activity was 2.7%.
